This experiment concerns the target GST tagged IRAK-4 (Homo sapiens (Human), UniProt Q9NWZ3). The experiment is described as follows: IRAK-4 Kinase Assay (IMAP fluorescence polarization). Type of experiment: biochemical. On the procedure:
The kinase activity of IRAK-4 is determined by its ability to catalyze the phosphorylation of a fluorescent polypeptide substrate. The extent of phosphorylation is measured using the IMAP technology (Molecular Devices) where the phosphorylated fluorescent substrate binds to the large M(III)-based nanoparticles which reduces the rotational speed of the substrate and thus increases its fluorescent polarization (FP).
20 μl reaction mixture contains 10 mM TriHCl, pH 7.2, 0.5 nM GST tagged IRAK-4 (SignalChem), 100 nM fluorescent peptide substrate (RP7030, Molecular Devices), 100 μM ATP, 1 mM DTT, 1 mM MgCl2, and 0.01% Tween 20. The reaction is initiated by the addition of ATP. After incubation for 30 minutes at 25° C., 60 μl of Progressive IMAP Reagent (Molecular Devices) is added to stop the reaction. Change in RP7030's FP is determined by a FP reader (Analyst HT, LH, BioSystems).

By UniProt entry, the sequences of proteins in these tests, tags left out.
UniProt Q9NWZ3, whole entry: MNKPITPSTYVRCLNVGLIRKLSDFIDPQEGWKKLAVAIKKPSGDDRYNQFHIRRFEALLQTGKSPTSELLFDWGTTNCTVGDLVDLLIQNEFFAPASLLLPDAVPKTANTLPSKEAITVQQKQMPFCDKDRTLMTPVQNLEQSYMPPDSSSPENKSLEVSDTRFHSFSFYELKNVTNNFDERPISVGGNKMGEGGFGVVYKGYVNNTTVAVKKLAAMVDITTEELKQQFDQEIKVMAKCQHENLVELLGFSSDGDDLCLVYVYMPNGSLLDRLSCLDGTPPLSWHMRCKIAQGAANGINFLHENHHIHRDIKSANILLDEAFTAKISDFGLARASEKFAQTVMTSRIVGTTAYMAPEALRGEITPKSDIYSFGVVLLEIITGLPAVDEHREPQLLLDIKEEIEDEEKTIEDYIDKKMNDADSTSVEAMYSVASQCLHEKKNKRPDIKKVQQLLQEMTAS

Structures are written as SMILES.

With `Cc1ccc(-n2nc(C3CCCN(Cc4ccc(C5(C#N)COC5)cc4)C3)cc2NC(=O)c2cnn3cccnc23)cc1` (stereo not shown) [Example 293, N-[3-{1-[4-(3-cyanooxetan-3-3/1)benzyl]piperidin-3-yl}-1-(4-methylphenyl)-1H-pyrazol-5-yl]pyrazolo[1,5-a]pyrimidine-3-carboxamide], the IC50 is less than 1000 nM.

As usually defined, the IC50 is the midpoint of a concentration-inhibition curve. Read a high IC50 as a need for much substance.
